Data on 102 compounds can be found in PubChem BioAssay AID504803 (The Scripps Research Institute Molecular Screening Center, 2011).

Chains of the proteins cited; added tags and fusions are not shown.
UniProt Q92743, whole entry, looked up: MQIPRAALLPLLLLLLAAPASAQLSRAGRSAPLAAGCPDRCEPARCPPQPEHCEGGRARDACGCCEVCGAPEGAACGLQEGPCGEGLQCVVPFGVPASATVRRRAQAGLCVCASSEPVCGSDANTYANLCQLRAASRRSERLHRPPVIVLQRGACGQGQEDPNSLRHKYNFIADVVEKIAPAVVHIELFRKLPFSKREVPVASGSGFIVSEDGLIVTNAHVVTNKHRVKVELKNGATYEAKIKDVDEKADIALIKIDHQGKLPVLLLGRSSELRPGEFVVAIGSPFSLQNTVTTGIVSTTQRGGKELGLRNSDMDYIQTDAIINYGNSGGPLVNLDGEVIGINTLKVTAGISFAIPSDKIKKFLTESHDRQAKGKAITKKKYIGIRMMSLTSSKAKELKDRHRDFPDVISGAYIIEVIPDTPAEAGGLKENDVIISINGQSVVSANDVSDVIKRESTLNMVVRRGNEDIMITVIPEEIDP

This is a selection; strong and weak results do not stand in their true shares. Calls of active or inactive are those of the source. Rule as the data show it: active = inhibition above about 36%; inactive = the rest.

The assay has as its target Serine protease HTRA1 (Homo sapiens) (UniProt Q92743). Kind of assay: HTRA1 serine protease inhibitors, primary screen, biochemical, fluorescence polarization, HTS (AID 504803).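 Also: 0% = enzyme with DMSO and 100% = wells lacking enzyme.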 Particulars: recombinant HTRA1, FP-rhodamine activity-based probe, at 5.96 µM, active compounds read high.
For the compound `Cc1ccccc1CN(C)C(=O)COC(=O)C(O)(c1ccccc1)c1ccccc1`, the inhibition is inactive: -0.76%.

As to `C[C@H]1OP(=O)(Oc2ccccc2)C[C@@H]2O[C@@H]21` (some centres not stated), the inhibition was inactive: 0.73%.

With `C[C@@H]1C=CCP(=O)(Oc2ccccc2)O1` (some centres not stated), the inhibition was inactive: -4.45%.

For the compound `CC(=O)c1ccc(N2CC2c2ccncc2)cc1` (configuration not stated), the inhibition was inactive: 9.19%.

For the compound `N#C/C(=C\c1ccc(N(CCBr)CCBr)cc1)C(N)=O`, the inhibition is inactive: 3.39%.

Turning to `COC(=O)C1(C)COP(=O)(NCc2ccccc2)OC1` (configuration not stated), the inhibition was inactive: 2.31%.

Regarding `CC(=O)Nc1ccc([As](=O)(O)O)c(O)c1`, the inhibition is inactive: 0.1%.

On to `CC(=O)Nc1ccc(Oc2c([N+](=O)[O-])cc([N+](=O)[O-])cc2[N+](=O)[O-])cc1`, for which the inhibition is inactive: 10.2%.

For the compound `O=P1(Nc2nc3ccc(Cl)cc3s2)COc2ccccc2O1` (configuration not stated), the inhibition was inactive: 0.31%.

Take `CCOc1ccc(C2=NCC(CBr)S2)cc1` (configuration not stated): the inhibition was inactive: -1.23%.

With `CC(C)(C)C(=O)NC(Sc1ccccc1)C(Cl)(Cl)Cl` (configuration not stated), the inhibition was inactive: -11.2%.

For the compound `CCc1cc(O)c([N+](=O)[O-])c(C)c1[N+](=O)[O-]`, the inhibition is inactive: 0.64%.

Turning to `O=C(OC1CN2CCC1CC2)c1ccccc1` (configuration not stated), the inhibition was inactive: 2.56%.

Consider `CCC(=O)N1C2C3N(C(=O)CC)C1C1N(C(=O)CC)C(C(N1C(=O)CC)N3C(=O)CC)N2C(=O)CC`, for which the inhibition was inactive: 2.2%.

For `COC(=O)c1cc2c(s1)N=C(c1ccccc1)N(C)P2(=O)N1CCOCC1` (configuration not stated), the inhibition is inactive: 2.23%.

For the compound `CC(=O)NC(SC(=S)N(CC(C)C)CC(C)C)C(Cl)(Cl)Cl` (configuration not stated), the inhibition is inactive: 10%.

Consider `Cc1ccc(OP(=O)(Nc2ccccn2)Oc2ccc(C)cc2)cc1`, for which the inhibition is inactive: -13.7%.

Consider `CC(NC(=O)COC(=O)C(O)(c1ccccc1)c1ccccc1)c1ccccc1` (configuration not stated), for which the inhibition was inactive: -7.99%.

For `Cc1ccccc1OP(=O)(Nc1ccccn1)Oc1ccccc1C`, the inhibition was inactive: -12.2%.

On to `O=c1c2cc([N+](=O)[O-])ccc2[nH]c2c([N+](=O)[O-])cc([N+](=O)[O-])cc12`, for which the inhibition is inactive: 20.1%.

Turning to `CN(C)C(=O)Oc1noc2ccccc12`, the inhibition is inactive: 5.86%.

For `CCNC(=S)/N=C(\N)N[N+](=O)[O-]`, the inhibition is inactive: 7.81%.

Regarding `O=C(NC1CCS(=O)(=O)C1)NP(=S)(Oc1ccccc1)Oc1ccccc1` (configuration not stated), the inhibition is inactive: -8.32%.

Turning to `O=P1(N(CCCl)CCCl)OCCC2CCCCN21` (configuration not stated), the inhibition is inactive: 4.13%.

For `O=[As](O)(c1ccccc1)c1ccc(O)cc1`, the inhibition was inactive: 1.02%.

Turning to `O=[N+]([O-])c1ccc(O)c(/C=N/Nc2ccc([N+](=O)[O-])cc2[N+](=O)[O-])c1`, the inhibition was inactive: 4.41%.

In the case of `CC(=O)NC(SC(=S)N(C)C)C(Cl)(Cl)Cl` (configuration not stated), the inhibition was inactive: 0.26%.

For the compound `O=[N+]([O-])c1ncn(CCn2cnc([N+](=O)[O-])n2)n1`, the inhibition is inactive: 0%.

For `O=C(OC1CN2CCC1CC2)c1cccc(Cl)c1` (configuration not stated), the inhibition is inactive: -2.85%.

In the case of `C(Cc1nn[nH]n1)Cc1nn[nH]n1`, the inhibition is inactive: 2.57%.

On to `Nc1ccc([As](=O)(O)c2ccc([N+](=O)[O-])cc2)cc1`, for which the inhibition is inactive: 3.61%.

With `O=P(Nc1ccccn1)(c1ccc(Br)cc1)c1ccc(Br)cc1`, the inhibition is inactive: -9.95%.

For the compound `CN(C)C1(CNC(=O)c2ccc(Cl)c(S(N)(=O)=O)c2)CCCCC1`, the inhibition was inactive: -2.97%.

On to `COc1ccc(N)c([N+](=O)[O-])c1[N+](=O)[O-]`, for which the inhibition was inactive: 18.7%.

On to `O=P(Nc1nc2ccccc2s1)(c1ccccc1)c1ccccc1`, for which the inhibition is inactive: -5.54%.

On to `C[C@H]1OP(=O)(Oc2ccccc2)[C@H](O)[C@H](O)[C@H]1N=[N+]=[N-]` (some centres not stated), for which the inhibition was inactive: -1.4%.

Turning to `CC(C)C(=O)NC(Sc1ccccc1)C(Cl)(Cl)Cl` (configuration not stated), the inhibition is inactive: -4.84%.

For `O=P(Nc1nccs1)(c1ccccc1)c1ccccc1`, the inhibition is inactive: 2.96%.

For the compound `c1nnnn1CCn1cnnn1`, the inhibition is inactive: 3.46%.

`CCN(/C(=N/P(=O)(N1CCOCC1)N1CCOCC1)N1CCOCC1)c1ccc(OC)cc1`: the inhibition is inactive: 1.49%.

As to `Nc1ccc([As](=O)(O)c2ccc(N)cc2)cc1`, the inhibition was inactive: -2.02%.

With `C[N+]1=C2C=CC=CC=C2SC12C([N+](=O)[O-])=CC([N+](=O)[O-])=C[C-]2[N+](=O)[O-]` (configuration not stated), the inhibition was active: 47.9%.

Regarding `CC1CCN(C(=O)Oc2c(Cl)cc(Cl)c3cccnc23)CC1`, the inhibition is inactive: -6.25%.

Consider `c1cc(-c2nn[nH]n2)ccc1-c1nn[nH]n1`, for which the inhibition is inactive: 6.94%.

For the compound `CC(C)c1nc(Nc2ccccc2)n(P(=O)(N(C)C)N(C)C)n1`, the inhibition was inactive: 2.83%.

As for `CC(C)=N/N=C(\N)N[N+](=O)[O-]`, the inhibition was inactive: 2.32%.

For `CN(C)C(=O)OCCc1n(C)cc[n+]1C`, the inhibition is inactive: 1.67%.

For the compound `COc1ccc(C2=NCC(CBr)S2)cc1` (configuration not stated), the inhibition was inactive: -0.38%.

For `Cc1ccc(NP(=O)(Oc2ccccc2)Oc2ccccc2)nc1`, the inhibition is inactive: -2.54%.

With `CCc1nc2c(n1)c1c(non1O)c1c2no[n+]1[O-]`, the inhibition was inactive: 21.2%.

As to `O=[N+]([O-])c1cc([N+](=O)[O-])c(CCNc2ccccc2)c([N+](=O)[O-])c1`, the inhibition is active: 38.1%.

Regarding `O=[N+]([O-])c1cccc2n[nH]nc12`, the inhibition was inactive: 1.41%.

For `CC(=O)N1C2C3N(C(C)=O)C1C1N(C(C)=O)C(C(N1C(C)=O)N3C(C)=O)N2C(C)=O`, the inhibition is inactive: 1.12%.

On to `O=[N+]([O-])c1ncn(CCn2ncnc2[N+](=O)[O-])n1`, for which the inhibition is inactive: 1.2%.

On to `CC(C)(C)C(=O)NC(Sc1ccncn1)C(Cl)(Cl)Cl` (configuration not stated), for which the inhibition is inactive: 1.75%.

As to `O=C(O)CNc1ccc([As](=O)(O)O)cc1`, the inhibition was inactive: 0.31%.

With `COC(=O)C1(C)COP(=O)(Nc2ccccc2)OC1` (configuration not stated), the inhibition is inactive: 7.72%.

For `O=[N+]([O-])c1cccc(NC2=NCC(CBr)S2)c1` (configuration not stated), the inhibition was inactive: 2.49%.

`O=P1(N(CCCl)CCCl)OCCCS1` (configuration not stated): the inhibition is inactive: 2.89%.

Regarding `O=C(Nc1cc([As](=O)(O)O)ccc1O)c1ccccc1`, the inhibition was inactive: 2.55%.

On to `Nc1cccc2ccc([As](=O)(O)O)cc12`, for which the inhibition is inactive: 25%.

Regarding `CCN(N=Nc1nonc1N)c1nonc1N`, the inhibition is inactive: -5.36%.

On to `O=P(Nc1nc2ccc(Cl)cc2s1)(c1ccccc1)c1ccccc1`, for which the inhibition was inactive: -30.8%.

`CN(C)P(=O)(N(C)C)n1c(Nc2ccccc2)nnc1-c1ccccc1`: the inhibition is inactive: -5.22%.

Take `CC(=O)Nc1ccc([As](=O)(O)O)cc1`: the inhibition was inactive: 3.96%.

In the case of `O=C(O)c1ccccc1[As](=O)(O)O`, the inhibition was inactive: 2.79%.

Take `CCCC1OP(N)(=O)OCC1CC` (configuration not stated): the inhibition was inactive: 6.07%.

For the compound `Cc1cc(SC(NC(=O)c2ccc(F)cc2)C(Cl)(Cl)Cl)ncn1` (configuration not stated), the inhibition was inactive: 2.11%.

Consider `CCOP(=O)(Nc1ccccc1)OCC`, for which the inhibition was inactive: 0.04%.

`Cc1ccc(NP(=O)(Oc2ccccc2F)Oc2ccccc2F)nc1`: the inhibition was inactive: 11.4%.

On to `CN(C(=O)Cc1ccc(Cl)c(Cl)c1)[C@H]1CCCC[C@@H]1N1CCCC1`, for which the inhibition is inactive: -3.28%.

Consider `Oc1ccccc1CNc1ccccn1`, for which the inhibition is inactive: 1.17%.

Turning to `O=C(NC(Sc1ccncn1)C(Cl)(Cl)Cl)c1ccccc1` (configuration not stated), the inhibition was inactive: -0.7%.

Take `Nc1cc(N)c2nonc2c1[N+](=O)[O-]`: the inhibition is inactive: 2.74%.

`CC(C)CC(=O)NC(Sc1ccc(Cl)cc1)C(Cl)(Cl)Cl` (configuration not stated): the inhibition is inactive: -14.3%.

Regarding `CN(C(=O)Cc1ccc(Cl)c(Cl)c1)[C@H]1CCCC[C@H]1N1CCCC1`, the inhibition is inactive: 6.01%.

Regarding `Cc1ccc(N/C(=N/P(=O)(N2CCOCC2)N2CCOCC2)N2CCOCC2)cc1`, the inhibition was inactive: -14.8%.

For `NC(=O)c1cc([N+](=O)[O-])cc([N+](=O)[O-])c1N`, the inhibition is inactive: 11.3%.

For `CN1CCCC(OC(=O)C(c2ccccc2)c2ccccc2)C1` (configuration not stated), the inhibition was inactive: -0.68%.

Turning to `Clc1ccc(Cl)c(NC2=NCC(CBr)S2)c1` (configuration not stated), the inhibition is inactive: -9.62%.

For `COc1ccccc1OP(=O)(Nc1ccc(C)cn1)Oc1ccccc1OC`, the inhibition is inactive: -6.28%.

For `O=[N+]([O-])c1cc(Oc2ccc([N+](=O)[O-])cc2C(F)(F)F)cc([N+](=O)[O-])c1`, the inhibition was inactive: -2.77%.

Take `COc1ccc(N/C(=N/P(=O)(N2CCOCC2)N2CCOCC2)N2CCOCC2)cc1`: the inhibition was inactive: 3.73%.

As for `Cc1c2c(nc3ccccc13)SC(C(Cl)Cl)C2` (configuration not stated), the inhibition is inactive: -12.9%.

As for `O=C(OC1CN2CCC1CC2)C12CC3CC(CC(C3)C1)C2` (configuration not stated), the inhibition was inactive: 1.73%.

`Cc1cc(=O)[nH]c(N[N+](=O)[O-])n1`: the inhibition is inactive: 7.75%.

Turning to `O=P1(N(CCCl)CCCl)OCCCN1CCCl` (configuration not stated), the inhibition is inactive: 1.87%.

On to `O=P1(N(CCCl)CCCl)Nc2ccccc2N1`, for which the inhibition is inactive: -0.86%.

Turning to `COc1ccc2nc(NP(=O)(c3ccccc3)c3ccccc3)sc2c1`, the inhibition was inactive: -10.2%.

As for `COc1cc(I)ccc1[As](=O)(O)O`, the inhibition was inactive: 0.16%.

On to `ClCCSc1nnc(-c2cccnc2)o1`, for which the inhibition is inactive: 4.04%.

`COC(=O)C1(C)COP(=O)(N2CCCCCC2)OC1` (configuration not stated): the inhibition was inactive: 3.51%.

On to `CC(C)c1ccc(OP(=O)(Nc2ccccn2)Oc2ccccc2F)cc1` (configuration not stated), for which the inhibition was inactive: -2.58%.

Turning to `CCN(CC)C(=S)SC(NC=O)C(Cl)(Cl)Cl` (configuration not stated), the inhibition is inactive: -0.38%.

As for `O=C(OC1CN2CCC1CC2)c1cccc2[nH]cnc12` (configuration not stated), the inhibition was inactive: -2.29%.

With `O=[N+]([O-])c1cc([N+](=O)[O-])c(-c2ccn[nH]2)s1`, the inhibition is inactive: 0.2%.

Regarding `O=[As](O)(c1ccc(O)cc1)c1ccccc1O`, the inhibition is inactive: 1.85%.

Take `C[As](=O)(O)c1cccc(C(=O)O)c1`: the inhibition was inactive: -1.19%.

Turning to `O=[N+]([O-])c1ccc(-c2cc([N+](=O)[O-])c(O)c([N+](=O)[O-])c2)cc1`, the inhibition was inactive: -11.9%.

Take `COc1cc(C(=O)NCC2(N3CCOCC3)CCCCC2)ccc1OCC(C)C`: the inhibition was inactive: -1.45%.

`Cc1ccc(OP(=O)(Nc2ccc([N+](=O)[O-])cn2)Oc2ccc(C)cc2)cc1`: the inhibition was inactive: 6.94%.

`Cc1ccc2nc3c(c(C)c2c1)CC(C(Cl)Cl)S3` (configuration not stated): the inhibition was inactive: -26.3%.

As usually defined, the inhibition is the relative decrease from the control value, in per cent.
